Apparent affinities of Ab-14 variants for a coronavirus HR2 peptide

All variants were tested on one target, the spike HR2 peptide PDVDLGDISGINAS (SARS-CoV-2).

Parent: Ab-14, a human scFv built as VH, a 15-residue (Gly4Ser)3 linker, VL. Only the CDRs of the light chain vary.
VH: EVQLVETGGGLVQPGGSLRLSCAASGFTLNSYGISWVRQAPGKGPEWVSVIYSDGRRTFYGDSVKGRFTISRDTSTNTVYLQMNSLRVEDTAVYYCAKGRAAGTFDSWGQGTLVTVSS
VL: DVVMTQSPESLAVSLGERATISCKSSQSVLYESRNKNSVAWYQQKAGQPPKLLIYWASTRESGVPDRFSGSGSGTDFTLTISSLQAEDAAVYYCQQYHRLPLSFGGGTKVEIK

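Library AAYL50 holds single substitutions and randomly drawn double and triple substitutions in the CDRs. Affinity was read by AlphaSeq, a pooled yeast mating assay with surface-displayed partners. Mating (16 h, 30 °C) was followed by selection of diploids and sequencing of their barcodes. Read counts were normalised to the haploid input and turned into Kd by a linear fit to BCL2-family pairs of known affinity, for each replicate. There are three technical replicates.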

Variants are written as CDR1, CDR2 and CDR3 of the light chain (limits as in the source). Parent: KSSQSVLYESRNKNSVA, WASTRES, QQYHRLPLS.
Scale: log10 of Kd in nM, estimated from mating counts; low values are strong binders.
Replicates are averaged; those with no signal do not enter the mean.
"not detected" marks a missing value. The strain was present, yet no cells mated with the target were sequenced in any replicate, which points to weak or no binding.
Parent in this assay: reference entry 0.65, copy in this library 1.68.

| CDR-L1 | CDR-L2 | CDR-L3 | mean log10 Kd (nM) | seen in |
|---|---|---|---|---|
| DSSQSVLYESRNKNSVA | WASTRES | QRYHRLPLS | 4.61 | 2/3 |
| KSSQSVLQESRNKNSVA | WASDRES | QQYHRLPDS | 4.34 | 1/3 |
| KSSQSVLHESRNKNSVA | WASTQEV | QQYHRLPLS | 2.49 | 3/3 |
| KSSQSVLYEYRNKNSVA | WASHRES | QEYHRLPLS | not detected | 0/3 |
| KSSQSVLYESRNKNSTA | WASTREQ | QQYHREPLS | not detected | 0/3 |
| KSSQSVLYESTNKDSVA | AASTRES | QQYHRLPLS | -0.10 | 3/3 |
| KSSQSVLYESENKDSVA | WASTPES | QQYHRLPLS | 1.19 | 3/3 |
| KSSQSPLYESRNKNSYA | WWSTRES | QQYHRLPLS | not detected | 0/3 |
| KSSWSVLYESRNKNSVA | WASSRES | QQYHRLPLS | not detected | 0/3 |
| KSSQSVLYGSRNKNSDA | WVSTRES | QQYHRLPLS | 3.79 | 1/3 |
| KSSQSVLFESRNKNSVA | WASTRES | AQYHRLPLS | 2.82 | 3/3 |
| KSSQSVLYESRNKYSVA | WAFTRES | QQYHRLPQS | not detected | 0/3 |
| KSSQSVLYESRNKNSVA | WASTRMS | QQYPRLPWS | 2.37 | 3/3 |
| KSSKSVLYESRNKNSVA | WASTRES | QQYKRLPLS | 1.98 | 3/3 |
| KSSNSVLYESRNKNSVA | WASTRES | QQYHRLPVD | 1.91 | 3/3 |
| KSSQSVLYESRNKNSHA | WASTRHQ | QQYHRLPLS | 4.68 | 2/3 |
| KSSQSVLYESRNKNVVA | WKSRRES | QQYHRLPLS | 4.53 | 2/3 |
| KSSQSVLYESRQKNSVA | WQSTRAS | QQYHRLPLS | not detected | 0/3 |
| KSSQSVLNESTNKNEVA | WASTRES | QQYHRLPLS | 0.39 | 3/3 |
| KSSYSVLYESRNMLSVA | WASTRES | QQYHRLPLS | 2.45 | 3/3 |
| KSSQSVLYESRNKNSVA | WASTREL | QFYHRLPLS | 3.67 | 1/3 |
| KSSQSVLKESRNKNSVA | WSSTRES | QCYHRLPLS | 4.98 | 3/3 |
| KSSQSVAYESRNKNSVA | WASTRES | QQKHRLPLE | 4.47 | 3/3 |
| KSSQSCLYESRNTNSVA | WASTRES | QQYHREPLS | not detected | 0/3 |
| KSSQVNLYESRNKNSVA | WASERES | QQYHRLPLS | 1.14 | 3/3 |
| KSWQPVLYESRNKNFVA | WASTRES | QQYHRLPLS | not detected | 0/3 |
| GSSQSVLYESRNKNSVA | WASTRES | QQYHRWCLS | not detected | 0/3 |
| KSSQSVLYESRNKNSVA | WASTRES | VQYHRLPSS | 1.65 | 3/3 |
| KSAQSVLYESRNKASVA | WASTRFS | QQYHRLPLS | 1.47 | 3/3 |
| HSSQSVLYESRNKNSVA | WAMTIES | QQYHRLPLS | 2.83 | 1/3 |
| KSSQSVLYESRFKNSVA | WASQRES | QQYHRLDLS | 1.71 | 3/3 |
| KSSQSVLYESRNKNSVC | WASTLEK | QQYHRLPLS | 4.06 | 3/3 |
| KSSQSVLYESRNKNFVC | WRSTRES | QQYHRLPLS | 4.49 | 1/3 |
| KSCCSVLYESRHKNSVA | WASTRES | QQYHRLPLS | not detected | 0/3 |
| LSSQSHLYESRNKNSVA | RASTRES | QQYHRLPLS | 0.93 | 3/3 |
| KSHQSVLYESRNKNSVA | WASTHES | QQYHRLQLS | 2.18 | 3/3 |
| KRSQSVLYESRNKNSVA | WAITRES | GQYHRLPLS | 3.48 | 1/3 |
| KSSQSVLYESRNKNSVA | WASTDES | QEYHRLPLS | not detected | 0/3 |
| KSSQSVLYESRNKNSGA | WASTRED | QQYHRLPPS | not detected | 0/3 |
| KSSQSVLEKSRNKNSVA | WAITRES | QQYHRLPLS | 1.72 | 3/3 |
| KSSISNLYEERNKNSVA | WASTRES | QQYHRLPLS | 0.26 | 3/3 |
| KSSQSVLYESRNKNSVA | WFSTRES | QQYHRLPDS | 5.47 | 3/3 |
| KSSQSVLYESRNKTSVA | WASRREK | QQYHRLPLS | not detected | 0/3 |
| KSSQSVFYESRNKNSVA | WASTAES | QQYHRLVLS | 4.23 | 1/3 |
| KSSYSVLYESHNKNSVA | WASTRES | QQCHRLPLS | 2.84 | 1/3 |
| KSSQSCLYESRNKNSVA | WASTREC | QQYHRLPLD | not detected | 0/3 |
| KSSQSDLYESMNKPSVA | WASTRES | QQYHRLPLS | 1.68 | 3/3 |
| KSSQSVLYESRNKNSVA | WASTRES | QSYWRCPLS | 1.70 | 3/3 |
| KSSQSVLYESINKNSVA | WASTRES | QQYKRLPSS | 0.75 | 3/3 |
| KDSQSVLYISRNSNSVA | WASTRES | QQYHRLPLS | 2.94 | 1/3 |
| KSSQSVLYESRNKNIVA | IASTREH | QQYHRLPLS | not detected | 0/3 |
| KSSQSVLYESRNKNSCA | WASTRRS | QQYHRLPKS | 4.85 | 1/3 |
| KSSQSVLYESINKNSVA | NASTTES | QQYHRLPLS | 0.29 | 3/3 |
| KSSQSVLYESRNKNSMH | WASMRES | QQYHRLPLS | not detected | 0/3 |
| KWSQSVLYESRNKNSVA | WAIYRES | QQYHRLPLS | 3.17 | 3/3 |
| KSSQSVLYESRNKNDVA | GASTRES | QQAHRLPLS | 1.75 | 3/3 |

The first 4 entries again:

| CDR-L1 | CDR-L2 | CDR-L3 | mean log10 Kd (nM) | seen in |
|---|---|---|---|---|
| DSSQSVLYESRNKNSVA | WASTRES | QRYHRLPLS | 4.61 | 2/3 |
| KSSQSVLQESRNKNSVA | WASDRES | QQYHRLPDS | 4.34 | 1/3 |
| KSSQSVLHESRNKNSVA | WASTQEV | QQYHRLPLS | 2.49 | 3/3 |
| KSSQSVLYEYRNKNSVA | WASHRES | QEYHRLPLS | not detected | 0/3 |

As a blank, each scFv also met three strains without target: over library AAYL50, 18% of these pairings were detected, typically at 4.19 and seldom below 2.99.

Source: Engelhart et al. 2022 (doi:10.1038/s41597-022-01779-4), MIT Lincoln Laboratory and A-Alpha Bio; data file from the FLAb repository.